Here are results for 45 molecules from PubChem BioAssay AID775 (SRMLSC, 2007).

The entries are a selection whose mix differs from that of the whole data set. Active and inactive are the calls of the source.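 Rule for the calls: active = inhibition above a set limit, placed 3 SD over the median of all compounds (cut at about 26% in these data); inactive = the rest.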

The nature of this assay: compounds extending yeast replicative lifespan, primary screen, S. cerevisiae, OD615 (AID 775).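 Note: 0% = nicotinamide-treated wells and 100% = cells grown without nicotinamide.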 The following applies: S. cerevisiae growth with nicotinamide, at 10 µM, hits give high values, deaD strain in restrictive glucose medium.
For the molecule `Cc1ccc(NCCc2c([N+](=O)[O-])cc([N+](=O)[O-])cc2[N+](=O)[O-])cc1`, the inhibition of the nicotinamide effect was inactive: 7.84%.

`COc1cc(C2NCCC3(OCCO3)C2(C)C)cc(OC)c1OC` (stereo not given): the inhibition of the nicotinamide effect was inactive: -5.1%.

Consider `CCOP(=O)(Nc1cccc2ccccc12)OCC`, for which the inhibition of the nicotinamide effect was inactive: 3.03%.

Turning to `Cc1cccc(OCC(=O)OC2CN3CCC2CC3)c1` (stereo not given), the inhibition of the nicotinamide effect was inactive: -7.18%.

As for `CCOP1(=S)c2c(C)nn(CCC#N)c2N=C(c2ccc(F)cc2)N1C` (stereo not given), the inhibition of the nicotinamide effect was inactive: -10.7%. For `O=[N+]([O-])c1ccc2c(c1)nnn2O`, the inhibition of the nicotinamide effect is inactive: -9.55%. Turning to `CCOP1(=S)c2c(C)nn(CCC#N)c2N=C(c2ccccc2F)N1C` (stereo not given), the inhibition of the nicotinamide effect was inactive: -11.2%. Turning to `O=P(Nc1nccs1)(c1ccccc1)c1nc2ccccc2s1` (stereo not given), the inhibition of the nicotinamide effect is inactive: -12.2%.

Turning to `O=P1(Nc2ncccn2)COc2ccccc2OC1`, the inhibition of the nicotinamide effect was inactive: -2.51%. For `O=P1(Nc2ccc(Br)cn2)COc2ccccc2OC1`, the inhibition of the nicotinamide effect was inactive: -0.76%. With `Cc1ccc(OCC(=O)OC2CN3CCC2CC3)cc1` (stereo not given), the inhibition of the nicotinamide effect was inactive: 2.83%.

Regarding `Cc1nn(-c2ccccc2)c2c1P(=O)(N1CCOCC1)N(C)C(c1ccccc1)=N2` (stereo not given), the inhibition of the nicotinamide effect was inactive: -20.8%. Turning to `O=P1(Nc2ccccn2)COc2ccccc2OC1`, the inhibition of the nicotinamide effect was inactive: -0.11%. The same measure for `Clc1n[nH]nc1-c1nn[nH][15n]1`: inactive: -2.04%; for `COP1(=S)c2c(C)nn(CCC#N)c2N=C(c2ccc(F)cc2)N1C` (stereo not given): inactive: -8.85%. Consider `O=C(COc1ccccc1)OC1CN2CCC1CC2` (stereo not given), for which the inhibition of the nicotinamide effect was inactive: -15.9%. For the molecule `Cc1cc(SC(NC(=O)c2ccccc2)C(Cl)(Cl)Cl)nc(C(C)C)n1` (stereo not given), the inhibition of the nicotinamide effect is inactive: -7.74%. Regarding `CCN(CC)C(=S)SC(NC=O)C(Cl)(Cl)Cl` (stereo not given), the inhibition of the nicotinamide effect is inactive: -22.6%.

Consider `O=[N+]([O-])c1cc([N+](=O)[O-])c(-c2ccn[nH]2)s1`, for which the inhibition of the nicotinamide effect is inactive: -7.76%. For the molecule `Cc1ccc2nc3c(c(C)c2c1)CC(C(Cl)Cl)S3` (stereo not given), the inhibition of the nicotinamide effect is inactive: -3.66%.

For the molecule `Cc1c2c(nc3ccccc13)SC(C(Cl)Cl)C2` (stereo not given), the inhibition of the nicotinamide effect was inactive: -3.49%.

Take `O=C(OC1CN2CCC1CC2)C12CC3CC(CC(C3)C1)C2` (stereo not given): the inhibition of the nicotinamide effect was inactive: -11.8%. With `Oc1ccccc1CNc1ccccn1`, the inhibition of the nicotinamide effect was inactive: -0.22%. The same measure for `Cc1c2non([O-])c-2c(C)[n+](=O)[n+]1[O-]`: inactive: 20.1%; for `O=C(NC(Sc1ccncn1)C(Cl)(Cl)Cl)c1ccccc1` (stereo not given): inactive: 23.3%; for `CC(C)CC(=O)NC(Sc1ccc(Cl)cc1)C(Cl)(Cl)Cl` (stereo not given): inactive: 11%. In the case of `CCN(N=Nc1nonc1N)c1nonc1N`, the inhibition of the nicotinamide effect is inactive: 6.9%. As to `CCOP(=O)(Nc1ccccc1)OCC`, the inhibition of the nicotinamide effect was inactive: 2.46%. The same measure for `Cc1cc(SC(NC(=O)c2ccc(F)cc2)C(Cl)(Cl)Cl)ncn1` (stereo not given): inactive: 1.89%; for `CC1CCN(C(=O)Oc2c(Cl)cc(Cl)c3cccnc23)CC1`: inactive: -4.32%. `CN(C)C(=O)OCCc1n(C)cc[n+]1C`: the inhibition of the nicotinamide effect was inactive: 6.75%. Take `CCc1nc2c(n1)c1c(non1O)c1c2no[n+]1[O-]`: the inhibition of the nicotinamide effect is inactive: -6.16%. With `O=[N+]([O-])c1cccc2n[nH]nc12`, the inhibition of the nicotinamide effect is inactive: -5.56%.

On to `CC(=O)N1C2C3N(C(C)=O)C1C1N(C(C)=O)C(C(N1C(C)=O)N3C(C)=O)N2C(C)=O`, for which the inhibition of the nicotinamide effect is inactive: -3.52%.

Consider `CC(C)C(=O)NC(Sc1ccccc1)C(Cl)(Cl)Cl` (stereo not given), for which the inhibition of the nicotinamide effect was inactive: 4.96%. As for `O=P(Nc1nccs1)(c1ccccc1)c1ccccc1`, the inhibition of the nicotinamide effect is inactive: -8.09%. As for `c1nnnn1CCn1cnnn1`, the inhibition of the nicotinamide effect is inactive: -2.8%.

In the case of `CC(=O)NC(SC(=S)N(C)C)C(Cl)(Cl)Cl` (stereo not given), the inhibition of the nicotinamide effect is inactive: 15.1%. `O=C(OC1CN2CCC1CC2)c1cccc(Cl)c1` (stereo not given): the inhibition of the nicotinamide effect was inactive: -27.9%. For the molecule `C(Cc1nn[nH]n1)Cc1nn[nH]n1`, the inhibition of the nicotinamide effect is inactive: 3.69%. With `CCC(=O)N1C2C3N(C(=O)CC)C1C1N(C(=O)CC)C(C(N1C(=O)CC)N3C(=O)CC)N2C(=O)CC`, the inhibition of the nicotinamide effect is inactive: -16.6%. On to `COC(=O)c1cc2c(s1)N=C(c1ccccc1)N(C)P2(=O)N1CCOCC1` (stereo not given), for which the inhibition of the nicotinamide effect was inactive: -11.7%. Take `CC(=O)NC(SC(=S)N(CC(C)C)CC(C)C)C(Cl)(Cl)Cl` (stereo not given): the inhibition of the nicotinamide effect was inactive: 4.82%.

Turning to `CCOC(=O)NC(Sc1ccccc1)C(Cl)(Cl)Cl` (stereo not given), the inhibition of the nicotinamide effect was inactive: -0.68%. As to `O=P1(Nc2nc3ccc(Cl)cc3s2)COc2ccccc2O1` (stereo not given), the inhibition of the nicotinamide effect was inactive: -14.5%.
